CycPeptMPDB entries from one study

PAMPA is the parallel artificial membrane permeability assay, which has no cells and reads passive diffusion.
Values are log10 P with P in cm/s, so -5 is more permeable than -7.

* CCCN1CC(=O)N(C)[C@H](CC(C)C)C(=O)N(C)[C@@H](CC(C)C)C(=O)N2CCC[C@@H]2C(=O)N(C)[C@H](CC(C)C)C(=O)N[C@@H](Cc2ccccc2)C(=O)N2CCC[C@H]2C1=O: PAMPA -4.96 (log10 cm/s)
* CC(C)C[C@@H]1NC(=O)[C@H](CC(C)C)N(C)C(=O)C[C@H](Cc2ccccc2)NC(=O)[C@H]2CCCN2C(=O)[C@H](Cc2ccccc2)NC(=O)[C@H](CC(C)C)N(C)C(=O)[C@H]2CCCN2C1=O: PAMPA -5.37 (log10 cm/s)
* CCCN1CC(=O)N(C)[C@H](CC(C)C)C(=O)N(Cc2ccccc2)CC(=O)N2CCC[C@@H]2C(=O)N(C)[C@H](CC(C)C)C(=O)N[C@@H](Cc2ccccc2)C1=O: PAMPA -5.34 (log10 cm/s)
* CC(C)C[C@@H]1NC(=O)[C@H]2CCCN2C(=O)[C@@H](CC(C)C)N(C)C(=O)[C@H](CC(C)C)NC(=O)[C@@H](C)N(C)C(=O)[C@H]2CCCN2C(=O)[C@H](Cc2ccccc2)NC1=O: PAMPA -6.21 (log10 cm/s)
* CC(C)C[C@H]1C(=O)N(C)[C@@H](CC(C)C)C(=O)N2CCC[C@H]2C(=O)N(C)[C@@H](CC(C)C)C(=O)N[C@@H](Cc2ccccc2)C(=O)N2CCC[C@@H]2C(=O)N(C)[C@H](C)C(=O)N1C: PAMPA -5.27 (log10 cm/s)
* CC(C)C[C@H]1NC(=O)[C@@H](C)NC(=O)[C@@H]2CCCN2C(=O)[C@H](Cc2ccccc2)NC(=O)[C@H](CC(C)C)N(C)C(=O)[C@@H]2CCCN2C(=O)[C@H](CC(C)C)N(C)C1=O: PAMPA -5.61 (log10 cm/s)
* CCCN1CC(=O)N[C@@H](CC(C)C)C(=O)N(C)[C@H](CC(C)C)C(=O)N2CCC[C@H]2C(=O)N[C@@H](CC(C)C)C(=O)N[C@@H](Cc2ccccc2)C(=O)N2CCC[C@H]2C1=O: PAMPA -5.88 (log10 cm/s)
* CCCN1CC(=O)N(C)[C@@H](CC(C)C)C(=O)N[C@@H](CC(C)C)C(=O)N2CCC[C@H]2C(=O)N[C@@H](CC(C)C)C(=O)N[C@@H](Cc2ccccc2)C1=O: PAMPA -5.40 (log10 cm/s)
* CC(C)C[C@@H]1NC(=O)[C@@H](CC(C)C)NC(=O)[C@H](C)N(C)C(=O)[C@H](Cc2ccccc2)NC(=O)[C@@H](CC(C)C)NC(=O)[C@H]2CCCN2C1=O: PAMPA -5.15 (log10 cm/s)
* CC(C)C[C@H]1NC(=O)[C@@H]2CCCN2C(=O)CN(Cc2ccccc2)C(=O)[C@H](CC(C)C)N(C)C(=O)[C@@H](C)N(C)C(=O)[C@@H]2CCCN2C(=O)[C@H](Cc2ccccc2)NC1=O: PAMPA -6.46 (log10 cm/s)
* CC(C)C[C@@H]1C(=O)N[C@@H](Cc2ccccc2)C(=O)N2CCC[C@H]2C(=O)N[C@H](C)C(=O)N(C)[C@@H](CC(C)C)C(=O)N(C)[C@@H](CC(C)C)C(=O)N2CCC[C@@H]2C(=O)N1C: PAMPA -5.55 (log10 cm/s)
* CC(C)C[C@@H]1NC(=O)[C@@H]2CCCN2C(=O)CN(Cc2ccccc2)C(=O)[C@H](CC(C)C)NC(=O)[C@H](C)N(C)C(=O)[C@H](Cc2ccccc2)NC1=O: PAMPA -5.36 (log10 cm/s)
* CC(C)C[C@H]1NC(=O)C[C@H](Cc2ccccc2)NC(=O)[C@@H]2CCCN2C(=O)[C@H](Cc2ccccc2)NC(=O)[C@@H](CC(C)C)NC(=O)[C@@H]2CCCN2C(=O)[C@@H](CC(C)C)NC1=O: PAMPA -5.78 (log10 cm/s)
* CC(C)C[C@H]1C(=O)N[C@@H](Cc2ccccc2)C(=O)N2CCC[C@H]2C(=O)N(C)[C@@H](C)C(=O)N(Cc2ccccc2)CC(=O)N[C@@H](Cc2ccccc2)CC(=O)N2CCC[C@H]2C(=O)N1C: PAMPA -5.63 (log10 cm/s)
* CC(C)C[C@@H]1C(=O)N[C@@H](Cc2ccccc2)C(=O)N[C@H](C)C(=O)N(C)[C@@H](CC(C)C)C(=O)N(C)[C@@H](CC(C)C)C(=O)N2CCC[C@H]2C(=O)N1C: PAMPA -5.19 (log10 cm/s)
* CC(C)C[C@@H]1NC(=O)[C@@H](C)NC(=O)[C@H](Cc2ccccc2)NC(=O)[C@@H](CC(C)C)NC(=O)[C@@H]2CCCN2C(=O)[C@@H](CC(C)C)N(C)C1=O: PAMPA -5.85 (log10 cm/s)
* CC(C)C[C@@H]1C(=O)N[C@H](CC(C)C)C(=O)N2CCC[C@H]2C(=O)N(C)[C@H](CC(C)C)C(=O)N[C@@H](Cc2ccccc2)C(=O)N2CCC[C@H]2C(=O)N[C@H](C)C(=O)N1C: PAMPA -5.82 (log10 cm/s)
* CC(C)C[C@H]1NC(=O)[C@H](CC(C)C)N(C)C(=O)[C@@H](C)N(C)C(=O)[C@H](Cc2ccccc2)NC(=O)CN(Cc2ccccc2)C(=O)[C@@H]2CCCN2C1=O: PAMPA -5.26 (log10 cm/s)
* CC(C)C[C@@H]1C(=O)N[C@@H](Cc2ccccc2)C(=O)N2CCC[C@H]2C(=O)N[C@H](C)C(=O)N(Cc2ccccc2)CC(=O)N[C@@H](Cc2ccccc2)CC(=O)N2CCC[C@H]2C(=O)N1C: PAMPA -6.09 (log10 cm/s)

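Conditions beyond the assay type are not listed; see the original paper. The list need not hold all peptides of the study. Peptides that the database sets to -10, its floor, are left out.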

Data: CycPeptMPDB; original report Townsend et al. 2020, doi:10.26434/chemrxiv.13335941.v1.